Measurements from ChEMBL document CHEMBL4118277, “Selective inhibition of monoamine oxidase A by chelerythrine, an isoquinoline alkaloid” (Bioorg Med Chem Lett, 2018).

Chains of the proteins cited; added tags and fusions are not shown.
UniProt P21397, whole entry: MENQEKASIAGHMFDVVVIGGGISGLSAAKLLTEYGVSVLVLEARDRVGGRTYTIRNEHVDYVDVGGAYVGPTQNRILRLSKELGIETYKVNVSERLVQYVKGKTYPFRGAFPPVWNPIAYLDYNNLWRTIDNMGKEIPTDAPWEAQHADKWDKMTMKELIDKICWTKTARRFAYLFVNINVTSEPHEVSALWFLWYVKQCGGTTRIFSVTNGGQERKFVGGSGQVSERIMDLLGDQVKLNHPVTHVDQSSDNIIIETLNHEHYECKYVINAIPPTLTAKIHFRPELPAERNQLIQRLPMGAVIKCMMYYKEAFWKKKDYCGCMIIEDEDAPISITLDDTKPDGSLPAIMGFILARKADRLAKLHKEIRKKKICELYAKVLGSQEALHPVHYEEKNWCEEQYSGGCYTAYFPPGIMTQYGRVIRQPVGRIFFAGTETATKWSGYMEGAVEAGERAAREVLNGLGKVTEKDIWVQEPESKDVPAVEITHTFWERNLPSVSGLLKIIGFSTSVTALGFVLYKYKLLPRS

Target: Amine oxidase [flavin-containing] A (Homo sapiens, UniProt P21397)
Assay: Competitive inhibition of recombinant human MAO-A using kynuramine as substrate by Lineweaver-Burk plot analysis

Compound: c1ccc2c(c1)[nH]c1cnccc12 [NORHARMANE]
- Ki: 260 nM
